Test results published in ChEMBL document CHEMBL1154754, “Janus kinase 2 inhibitors. Synthesis and characterization of a novel polycyclic azaindole” (J Med Chem, 2009).

Protein sequences, listed by entry. Tags and fused reporters are not part of them. Lines headed by an entry give the natural chain unless they say otherwise; changes in a name come on top.
UniProt O60674: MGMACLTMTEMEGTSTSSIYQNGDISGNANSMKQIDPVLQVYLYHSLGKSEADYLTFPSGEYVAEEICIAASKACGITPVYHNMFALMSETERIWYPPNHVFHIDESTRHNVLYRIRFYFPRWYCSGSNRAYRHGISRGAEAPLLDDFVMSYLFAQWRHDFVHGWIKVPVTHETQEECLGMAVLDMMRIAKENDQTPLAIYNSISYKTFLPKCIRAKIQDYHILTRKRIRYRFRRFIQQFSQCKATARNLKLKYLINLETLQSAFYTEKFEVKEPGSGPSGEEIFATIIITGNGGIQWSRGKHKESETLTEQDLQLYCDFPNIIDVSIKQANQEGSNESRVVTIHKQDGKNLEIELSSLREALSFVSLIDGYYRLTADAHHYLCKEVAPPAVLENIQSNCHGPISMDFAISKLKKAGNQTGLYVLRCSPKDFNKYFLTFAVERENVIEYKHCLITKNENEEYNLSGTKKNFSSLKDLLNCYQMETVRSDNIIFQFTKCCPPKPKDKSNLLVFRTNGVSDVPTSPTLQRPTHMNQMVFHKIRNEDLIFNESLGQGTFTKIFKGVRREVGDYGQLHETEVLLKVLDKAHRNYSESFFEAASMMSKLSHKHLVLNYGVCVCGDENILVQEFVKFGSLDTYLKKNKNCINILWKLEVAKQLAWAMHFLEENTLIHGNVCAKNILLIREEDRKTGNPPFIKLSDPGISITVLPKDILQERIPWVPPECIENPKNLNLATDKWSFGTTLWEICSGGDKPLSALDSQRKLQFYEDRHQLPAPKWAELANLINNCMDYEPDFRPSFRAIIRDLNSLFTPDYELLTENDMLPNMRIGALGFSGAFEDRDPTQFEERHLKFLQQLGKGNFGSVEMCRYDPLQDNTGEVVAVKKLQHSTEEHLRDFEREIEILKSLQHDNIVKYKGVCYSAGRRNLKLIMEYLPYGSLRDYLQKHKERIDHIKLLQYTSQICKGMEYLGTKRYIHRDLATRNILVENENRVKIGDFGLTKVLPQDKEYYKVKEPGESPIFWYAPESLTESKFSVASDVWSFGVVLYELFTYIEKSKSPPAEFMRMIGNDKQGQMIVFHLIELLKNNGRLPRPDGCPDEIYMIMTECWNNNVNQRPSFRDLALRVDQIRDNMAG

What was measured:
[1] = target: T1, Tyrosine-protein kinase JAK2 (Homo sapiens, UniProt O60674); assay: Inhibition of recombinant JAK2
[2] = target: T1, Tyrosine-protein kinase JAK2; assay: Inhibition of JAK2 in human TF1 cells assessed as inhibition of GMCSF-induced STAT5 phosphorylation by flow cytometry; type: cell-based, TF-1

Row | Structure (SMILES) | Ki [1] | IC50 [2]
1 | O=C1Nc2ccccc2-c2ccnc3[nH]cc(c23)C1c1ccc(O)cc1 (single isomer, unassigned; atropisomer 1) | 1 nM | 270 nM
2 | O=C1Nc2ccccc2-c2ccnc3[nH]cc(c23)C1c1ccc(O)cc1 (single isomer, unassigned; atropisomer 2) | 1 nM | 
